Reference: ChEMBL document CHEMBL5236556, “Development of Cdc2-like Kinase 2 Inhibitors: Achievements and Future Directions” (J Med Chem, 2021)

Amino acid sequences for entries named in this document (tags omitted). A change or cut given only in a name is not applied to a line headed by its entry.
UniProt P49760, whole entry: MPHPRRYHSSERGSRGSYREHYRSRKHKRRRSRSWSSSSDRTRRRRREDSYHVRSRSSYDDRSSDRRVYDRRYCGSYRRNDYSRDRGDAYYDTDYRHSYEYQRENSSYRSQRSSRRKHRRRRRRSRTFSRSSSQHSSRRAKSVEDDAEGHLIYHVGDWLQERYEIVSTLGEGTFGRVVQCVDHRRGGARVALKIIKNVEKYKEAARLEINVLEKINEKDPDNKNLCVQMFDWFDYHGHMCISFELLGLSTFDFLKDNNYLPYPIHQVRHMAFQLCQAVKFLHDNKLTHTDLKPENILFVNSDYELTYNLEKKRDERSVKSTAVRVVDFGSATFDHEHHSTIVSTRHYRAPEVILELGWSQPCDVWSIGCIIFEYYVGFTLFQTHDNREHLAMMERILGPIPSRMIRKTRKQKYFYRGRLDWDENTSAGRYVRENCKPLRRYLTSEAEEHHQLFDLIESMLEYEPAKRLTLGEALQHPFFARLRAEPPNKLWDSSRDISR
UniProt P49761: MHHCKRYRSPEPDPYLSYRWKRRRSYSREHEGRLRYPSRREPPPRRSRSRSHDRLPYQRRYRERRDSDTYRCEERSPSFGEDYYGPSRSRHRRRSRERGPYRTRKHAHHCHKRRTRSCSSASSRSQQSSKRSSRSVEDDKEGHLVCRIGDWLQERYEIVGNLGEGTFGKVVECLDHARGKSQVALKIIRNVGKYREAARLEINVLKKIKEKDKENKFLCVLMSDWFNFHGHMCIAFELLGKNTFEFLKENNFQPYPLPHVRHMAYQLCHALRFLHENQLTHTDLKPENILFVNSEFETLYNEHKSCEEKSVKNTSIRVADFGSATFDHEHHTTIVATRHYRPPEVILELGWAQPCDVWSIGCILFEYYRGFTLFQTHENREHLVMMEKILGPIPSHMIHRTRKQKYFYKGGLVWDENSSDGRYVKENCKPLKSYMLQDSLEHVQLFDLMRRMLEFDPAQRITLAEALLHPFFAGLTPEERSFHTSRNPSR

How the values were obtained:
[1] = target: Dual specificity protein kinase CLK2 (Homo sapiens, UniProt P49760)
[2] = target: Dual specificity protein kinase CLK3 (Homo sapiens, UniProt P49761)

| Compound | IC50 [1] [nM] | IC50 [2] [nM] |
| --- | --- | --- |
| O=C1NC(Nc2ccccc2)=N/C1=C\c1ccc2c(c1)OCO2 | 720 | – |
| Cn1cc(-c2ccc3occ(-c4cccc(-c5ccncc5)c4)c3n2)cn1 | – | > 3000 |
